Reference: ChEMBL document CHEMBL1144811, “Design and synthesis of morpholine derivatives. SAR for dual serotonin & noradrenaline reuptake inhibition” (Bioorg Med Chem Lett, 2008)

By UniProt entry, the sequences of proteins in these tests, tags left out.
UniProt P23975, whole entry: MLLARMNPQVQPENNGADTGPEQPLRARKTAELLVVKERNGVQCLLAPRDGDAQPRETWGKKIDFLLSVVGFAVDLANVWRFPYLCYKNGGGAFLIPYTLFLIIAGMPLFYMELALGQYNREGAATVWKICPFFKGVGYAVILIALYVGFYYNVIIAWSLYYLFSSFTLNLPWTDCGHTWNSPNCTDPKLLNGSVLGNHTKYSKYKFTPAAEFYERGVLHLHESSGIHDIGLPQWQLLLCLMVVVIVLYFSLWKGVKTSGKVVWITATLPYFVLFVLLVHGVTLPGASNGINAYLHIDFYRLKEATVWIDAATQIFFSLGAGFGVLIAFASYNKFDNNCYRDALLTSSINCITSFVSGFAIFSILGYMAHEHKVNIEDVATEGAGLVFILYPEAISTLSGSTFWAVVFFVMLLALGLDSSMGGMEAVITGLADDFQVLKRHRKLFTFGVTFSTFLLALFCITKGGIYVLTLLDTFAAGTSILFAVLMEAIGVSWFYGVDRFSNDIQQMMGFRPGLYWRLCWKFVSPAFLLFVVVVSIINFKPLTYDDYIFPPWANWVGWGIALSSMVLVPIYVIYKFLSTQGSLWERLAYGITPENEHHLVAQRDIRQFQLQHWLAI

These molecules were tested against Sodium-dependent noradrenaline transporter (Homo sapiens, UniProt P23975) (assay: biochemical).

pKi	Compound
8.10	COc1cc(Cl)ccc1O[C@@H](c1ccccc1)[C@@H]1CNCCO1
6.38	COc1cc(Cl)ccc1O[C@H](c1ccccc1)[C@H]1CNCCO1
6.49	COc1cc(Cl)ccc1OC(c1ccccc1)C1CNCCO1 (racemic; anti)
7.44	COc1cc(Cl)ccc1OC(c1ccccc1)C1CNCCO1 (racemic; syn)

pKi: −log10 of the molar value.
